The assay deals with rat 5HT transporter (rSERT) (Rattus norvegicus, UniProt P31652). As to the kind of experiment: [3H]5HT transport assay in HeLa cells transfected with BS4E-10 cDNA (rSERT). The class given is cell-based.

Chains of the proteins cited; added tags and fusions are not shown.
UniProt P31652, whole entry: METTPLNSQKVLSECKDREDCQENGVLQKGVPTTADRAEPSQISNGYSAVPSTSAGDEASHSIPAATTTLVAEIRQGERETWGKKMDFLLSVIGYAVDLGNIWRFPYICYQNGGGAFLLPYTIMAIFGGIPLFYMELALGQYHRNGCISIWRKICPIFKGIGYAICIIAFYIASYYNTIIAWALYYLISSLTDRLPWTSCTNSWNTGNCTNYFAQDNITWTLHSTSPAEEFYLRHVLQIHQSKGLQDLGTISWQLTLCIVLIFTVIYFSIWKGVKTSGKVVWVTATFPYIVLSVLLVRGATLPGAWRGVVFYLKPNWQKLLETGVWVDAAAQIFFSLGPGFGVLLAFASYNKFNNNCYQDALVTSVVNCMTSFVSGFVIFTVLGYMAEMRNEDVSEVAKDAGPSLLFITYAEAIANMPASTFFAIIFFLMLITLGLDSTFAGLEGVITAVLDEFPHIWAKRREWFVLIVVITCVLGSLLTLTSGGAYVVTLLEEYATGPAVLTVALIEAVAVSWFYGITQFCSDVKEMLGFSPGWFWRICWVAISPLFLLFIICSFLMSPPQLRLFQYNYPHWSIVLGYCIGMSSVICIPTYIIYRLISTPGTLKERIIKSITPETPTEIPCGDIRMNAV

Data on three compounds can be found in US5418162A, “Serotonin transporter CDNA” (Duke University, priority 1992, dated 1995).

In the case of `CN(C)CCCC1(c2ccc(F)cc2)OCc2cc(C#N)ccc21` (stereo not drawn) [citalopram], the “antagonism of 5HT transport (in words)” value is “selectively and potently antagonized”.

`CNCCC(Oc1ccc(C(F)(F)F)cc1)c1ccccc1` (stereo not drawn) [fluoxetine]: the “antagonism of 5HT transport (in words)” value was “selectively and potently antagonized”.

In the case of `Fc1ccc([C@@H]2CCNC[C@H]2COc2ccc3c(c2)OCO3)cc1` [paroxetine], the “antagonism of 5HT transport (in words)” value was “selectively and potently antagonized”.
